Experimental data published in patent US20190302117.

What was measured:
[1] = molecular target: T1, Peptide 11: DEAIYATVAGGKKK (version of peptide 5 used for the kinetic experiments)
T1 chain: DEAIYATVAGGKKK

[2] = molecular target: T2, Peptide 10: EDPIYVTLEGGKKK (version of peptide 2 used for the kinetic experiments)
T2 chain: EDPIYVTLEGGKKK

B1: His6-EGFR 672-998 (protein)
chain: HHHHHHGEAPNQALLRILKETEFKKIKVLGSGAFGTVYKGLWIPEGEKVKIPVAIKELREATSPKANKEILDEAYVMASVDNPHVCRLLGICLTSTVQLITQLMPFGCLLDYVREHKDNIGSQYLLNWCVQIAKGMNYLEDRRLVHRDLAARNVLVKTPQHVKITDFGLAKLLGAEEKEYHAEGGKVPIKWMALESILHRIYTHQSDVWSYGVTVWELMTFGSKPYDGIPASEISSILEKGERLPQPPICTIDVYMIMVKCWMIDADSRPKFRELIIEFSKMARDPQRYLVIQGDERMHLPSPTDSNFYRALMDEEDMDDVVDADEYLIPQQG
- Km [1]: > 200 µM
- kcat [1]: > 0.001 s⁻¹
- kcat/Km [1]: 5 M⁻¹ s⁻¹
- 2/5 kcat/Km ratio (peptide 2 against peptide 5) [2]: 5.8
- Km [2]: > 200 µM
- kcat [2]: > 0.005 s⁻¹
- kcat/Km [2]: 26 M⁻¹ s⁻¹
